Laboratory results taken from patent publication US12552769B2.
Values after ≈ are worked out from the molar mass of the structure shown.

Tests used:
[1] = tested on: UGT; assay: Metabolic stability test (UGT), rat microsomes; settings: Rat liver or small intestine microsomes 0.5 mg protein/mL, compound 1 μM, UDPGA 2 mM, 5 minutes at 37° C.
[2] = tested on: UGT; assay: Metabolic stability test (UGT), guinea pig microsomes; settings: Guinea pig liver or small intestine microsomes 0.5 mg protein/mL, compound 1 μM, UDPGA 2 mM, 5 minutes at 37° C.
[3] = Blood concentration (plasma pharmacokinetics after oral administration); settings: guinea pigs, oral 10 mg/kg, mean (n = 2)
[4] = Solubility test; settings: JP2 solution (pH 6.8), 10 mM DMSO solution diluted 50-fold, incubation 16 to 24 hours

UGT metabolic stability [1]: 279 μL/min/mg protein | UGT metabolic stability [2]: 230 μL/min/mg protein | AUC0-t [3]: 4.7047 µM·h | AUC0-∞ [3]: 4.9954 µM·h | Cmax [3]: 1260 nM | MRT0-∞ [3]: 7.3 h | Tmax [3]: 0.5 h | t1/2 [3]: 6.0 h | Solubility [4]: 5.3 µg/mL (≈ 10.5 µM)
SMILES: CC(C)C(=O)NCc1ccc(C(F)(F)F)c(-c2nc(-c3ccc(C(F)(F)F)cn3)cc(=O)[nH]2)c1F
